Experimental data from patent US20250332263A1, “SURFACTANT STABILIZERS” (NOVARTIS AG, priority 2021, published 2025).
Entries after “also recorded” stand apart in the source; their conditions may differ.

Assays:
[1] = tested on: host cell proteins (HCPs) of Protein 4; assay: Enzymatic degradation of surfactant in protein 4 formulation; type: physicochemical; settings: 0.02% PS80 or 0.04% other surfactants, one month at 5° C. or 40° C., HPLC
Protocol: Therefore, a formulation containing protein 4 also contains the enzymes responsible for polysorbate degradations and it is a suitable proxy for testing the propensity of enzymatic degradation during shelf life in real-world conditions. The formulation was complemented with either 0.02% PS80 or 0.04% of the amphiphilic surfactants VEDS, VEDG 2.2 or TPGS-1000 and incubated for one month at either 5° C. or 40° C.

dendritic cells = assay: Dendritic cell activation; type: cell-based, human
Protocol: Dendritic cell activation: Human whole blood was used to extract monocytes using MACS (magnetic activated cell sorting) according to manufacturer's instructions (Miltenyi Biotec Order no. 130-114-980). Cells were incubated for 6 days in respective differentiation media (Miltenyi DC differentiation medium order no. 130-094-812) resulting in dendritic cells. Cells were incubated in medium with surfactants in question for 48 h and subsequently stained for cell activation using fluorescently labeled antibodies (Mouse Anti-Human CD14 PerCP-Cy5.5 order no. 562692 from BD to check monocyte negative; Mouse Anti-Human CD11c BV605 from BD to check dendritic cell differentiation and Mouse Anti-Human CD80 FITC order no. 557226 from BD to check cell activation).

protein 1 = assay: Equilibrium surface tension, pendant-drop tensiometer (protein displacement at air/water interface); type: physicochemical; settings: for equilibrium surface tension / surface activity: surfactant in histidine buffer, absence or presence of protein 1, compared with protein 1 without surfactant, 60 min
Protocol: The aim of this experiment was to investigate the type of stabilization mechanism which the surfactants employ in protein-containing formulations. A Pendant-Drop Tensiometer was utilized to determine protein (API) displacement by surfactants at the air/water interface. Surfactant interface saturation mitigates the risk of interfacial stress for proteins and associated negative effects potentially impacting protein quality attributes.
The protein corresponding buffer was prepared and sterile filtered using a 0.22 μm filter unit. The surfactant in question was added into the buffer using a 5% stock solution as described earlier.
The buffer surfactant mix was aliquoted in 2 Nalgene bottles. To one of the two bottles was added the respective API in question to reach a final concentration of 1 mg/mL for protein 1 and 10 mg/mL for proteins 2 and 3.
Equilibrium surface tension was measured using the PAT-1M tensiometer (Sinterface). The system was rinsed 12 times with the sample to be measured. A hanging drop of constant volume (20 μL) was measured every second for 60 min. Drug substance samples with and without surfactants were measured at the same day to avoid operator, sample and day to day variations.

[2] = Quiescence stability study, oxidative and hydrolytic degradation of surfactant in Protein 2 formulation; settings: six months at 25° C., pull points every 1.5 months
[3] = tested on: protein 1 (disordered protein); assay: Orbital shaking forced degradation, particle count by micro-flow-imaging, Protein 1; type: physicochemical; settings: orbital shaking 250 rpm, ambient temperature, 0 h, 7 h and 24 h
Protocol: (§1) The API corresponding buffer was prepared with 20 mM Histidine, 220 mM Succrose pH 5.8 in water. The respective surfactant stock solution in question was added into the buffer accordingly in order to reach the final surfactant concentration (Brij58succinate 0.01% (w/v); Vit E variants 0.04% (w/v); SPGS-550-M 0.01% (w/v))
(§2) The aim of this experiment was to investigate the effect of amphiphilic surfactants to protect proteins from interfacial stress, such as that which is present during manufacturing, transport and application. As a proxy for this stress the forced degradation assay (orbital shaking), applying mechanical stress, was used in order to determine whether chosen surfactants stabilize three different protein API's (disordered protein, Fab, mAb) against mechanical stress (mitigating particle creation (protein aggregates)).
(§3) To each protein API was added the respective amount of surfactant (5% stock solution) needed to reach the final surfactant concentration (Brij58 0.01%; VitE variants 0.04%; SPGS-550-M 0.01%), as described earlier. 1.2 mL of sample was aliquoted in each 6R vial (2x). Vials of same sample were pooled after the study in order to generate enough volume for all analytical testing.
Mechanical stress was generated through orbital shaking at 250 rpm at ambient temperature for 0 h, 7 h, 24 h and 48 h using an orbital shaker. Samples were subsequently analyzed via micro-flow-imaging (MFI). Particle count >2 μm/mL was visualized by MF.

Basophile cells = assay: Basophile activation assay (B-cell activation); type: cell-based, human; settings: compared to polysorbate and B-cell activating positive control
Protocol: Basophile activation assay: Human whole blood was used to purify B-cells using an in vitro B-cell activation kit (Cellonic, Basotest, Cat #10-0500). Basophile cells were incubated in 100 μL 1×wash buffer containing the final surfactant concentration as the correct dilutions were prepared beforehand. Cell labeling, lysis and fixation was performed according to manufacturer instructions and subsequently analyzed using a BD FORTESSA flow cytometer. Leucocytes are gated via forward and sideward scatter. The Basophile subpopulation was gated on CD123 and IgE staining. Finally, activated Basophile cells were identified via CD203c and CD63 gating. All fluorescently labeled antibodies were provided in the kit stated above.

Platelets = assay: Inhibition of platelet aggregation, Whole Blood Aggregometry (WBA); type: cell-based, human; settings: for inhibition of platelet aggregation: 0.04% or 0.01% surfactant, 10 minutes at 37° C., agonists AA, TRAP6, collagen, ADP
Protocol: Human whole blood of 6 healthy volunteers was incubated with 0.04% or 0.01% surfactants for 10 minutes at 37° C. Saline solution was used as negative control. Platelets were activated with four independent agonists: arachidonic acid (AA), thrombin receptor activator peptide (TRAP6), collagen and ADP. Aggregation was measured through Whole Blood Aggregometry (WBA).
Whole Blood Aggregometry (WBA) consists of immerging electrodes into whole blood which measure the impedance between them. The addition of a platelet agonist activates the aggregation, resulting in an increase of impedance over time. This increase can be compared between a negative control and a testing sample to derive the degree of platelet inhibition.

protein 3 (mAb) = assay: Orbital shaking forced degradation, particle count by micro-flow-imaging, Protein 3; type: physicochemical; settings: orbital shaking 250 rpm, ambient temperature, 0 h, 7 h and 24 h
Protocol: as §1, with “3.05 mg/mL Adipic Acid” for “20 mM Histidine, 220 mM Succrose”, “7” for “5.8”, “VitE” for “Vit E”
as §2
To each protein API was added the respective amount of surfactant (5% stock solution) needed to reach the final surfactant concentration (Brij58 0.01%; VitE variants 0.04%; SPGS-550-M 0.01%), as described earlier. 1.2 mL of sample was aliquoted in each 6R vial (2x). […]
(§4) Mechanical stress was generated through orbital shaking at 250 rpm at ambient temperature for 0 h, 7 h, 24 h and 48 h using an orbital shaker. Samples were subsequently analyzed via micro-flow-imaging (MFI). […]

protein 2 (Fab) = assay: Orbital shaking forced degradation, particle count by micro-flow-imaging, Protein 2; type: physicochemical; settings: orbital shaking 250 rpm, ambient temperature, 0 h, 7 h and 24 h
Protocol: as §1, with “10” for “20”, “Histidine” for “Histidine, 220 mM Succrose”, “5” for “5.8”, “VitE” for “Vit E”
as §2, §3, §4

Human whole blood = assay: Hemolysis assay; type: cell-based; settings: 37° C. for 1 h, compared to polysorbate and NaCl control
Protocol: Hemolysis assay: Human whole blood was incubated with surfactants at 37° C. for 1 h. Cells were spun down 10 min at 2000 g. The COBAS6000 biochemistry analyzers take an aliquot of the patient specimen and dilute it in saline solution (0.9% sodium chloride) to measure the absorbance for hemolysis at 570 nm (primary wavelength) and 600 nm (secondary wavelength). From these absorbance values the instrument calculates serum index values.

[4] = 48 h surfactant incubation, compared to LPS activated DC and no-treatment control

| mean fluorescence intensity (MFI) fold change, dendritic cell (DC) activation (dendritic cells; surfactant concentration 0.01% (w/v)) | Substance | surfactant content (enzymatic degradation by HCPs) [1] | mean fluorescence intensity (MFI) fold change, dendritic cell (DC) activation (dendritic cells; [4]) | equilibrium surface tension / surface activity (protein 1) | susceptibility to chemical degradation (surfactant content over time) [2] | particle count >2 μm/mL [3] | number of activated B cells (%) upon surfactant treatment (Basophile cells) | inhibition of platelet aggregation (Platelets) | surface tension level (protein 1; SPGS-550-M formulation with protein 1, 60 min) [mN/m] | particle count >2 μm/mL (protein 3 (mAb)) | particle count >2 μm/mL (protein 2 (Fab)) | inhibition of platelet aggregation compared to Brij58 (Platelets; in 3 out of 4 agonists) | hemolytic potential (Human whole blood) |
| --- | --- | --- | --- | --- | --- | --- | --- | --- | --- | --- | --- | --- | --- |
| – | Vitamin E dimethyl succinate [VEDS] | not affected by enzymatic degradation | perform better than TPGS1000; also recorded: no DC activation | even higher surface activity resulting in significant drop of surface tension | stable levels of surfactant contents | perform better than TPGS-1000 | lower level of B-cell activation than TPGS1000 | comparable platelet inhibition values as PS80 | – | – | – | – | – |
| – | β-sitosterol methoxyethyleneglycol succinate [SPGS-550-M] | – | no DC activation | even higher surface activity resulting in significant drop of surface tension | almost linear degradation but not as severe as for PS80 | fewer particles than the current standard (PS20/80); also recorded: prevent particle formation | slightly increased levels of B-cell activation | no effect on platelet aggregation | > 40 | fewer particles than the current standard (PS20/80); also recorded: prevent particle formation | fewer particles than the current standard (PS20/80); also recorded: prevent particle formation | – | – |
| no B-cell activation | Brij58 succinate [Brij58succinate] | – | – | even higher surface activity resulting in significant drop of surface tension | – | prevent particle formation; also recorded: performs better than Brij58 | no B-cell activation | higher inhibition of the aggregation compared to PS80 | – | prevent particle formation | prevent particle formation | lower platelet inhibition compared to Brij58 | comparable to the polysorbate reference |
